The values that follow are results of earlier work, collected in publication PMC7395068, “The evolution of strategies to minimise the risk of human drug-induced liver injury (DILI) in drug discovery and development” (Archives of Toxicology, 2020).

Read-outs that look alike come from different tables or passages of the source.

Series [1] relates to isolated mouse liver mitochondria. The note with it: cited from earlier work.
The conditions of series [2]: cited from earlier work.
The conditions of series [3]: cited from earlier work. This is another data set of the same source.
For series [4] the following is noted: FDA drug labelling score, scale 1-8; ref Chen 2011; cited from earlier work.

Regarding Hyperforin, the “in vitro data EC20<=2uM” value in series [1] is given as “+VE”. In series [2] (in vivo), the “In vivo DILI” value was “-VE”.
As for enfuvirtide, in series [3] (in vivo), the “DILI +VE (5-8), DILI -VE (-4)” value is given as “-VE” and the DILI severity category entry is “Ambiguous DILI-concern”.
In the case of glycine, in series [2] (in vivo), the “In vivo DILI” value is recorded as “-VE”.
In the case of maraviroc, the “DILI +VE (5-8), DILI -VE (-4)” value in series [3] (binary in vivo human DILI call, ref Chen 2016) is listed as “+VE”. In addition, in series [4], the “DILI Score (FDA) (1-8)” value was 3.
medroxyprogesterone: in series [3] (in vivo), the “DILI +VE (5-8), DILI -VE (-4)” value is on record as “-VE” and the DILI severity category entry is listed as “Ambiguous DILI-concern”.
Consider plicamycin, for which the “In vivo DILI” value in series [2] ([…]) is listed as “+VE”.
